## Ab-91 heavy chain CDR variants: yeast mating affinities

Source: Engelhart et al. 2022 (doi:10.1038/s41597-022-01779-4), MIT Lincoln Laboratory and A-Alpha Bio; data file from the FLAb repository.

All variants were tested on one target, the spike HR2 peptide PDVDLGDISGINAS (SARS-CoV-2).

Parent scFv Ab-91: VL joined to VH by three GGGGS repeats. Changes lie in the heavy chain CDRs alone.
VL: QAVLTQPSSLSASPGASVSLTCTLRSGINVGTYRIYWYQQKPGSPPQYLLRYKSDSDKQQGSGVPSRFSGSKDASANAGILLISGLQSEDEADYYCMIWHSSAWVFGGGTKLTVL
VH: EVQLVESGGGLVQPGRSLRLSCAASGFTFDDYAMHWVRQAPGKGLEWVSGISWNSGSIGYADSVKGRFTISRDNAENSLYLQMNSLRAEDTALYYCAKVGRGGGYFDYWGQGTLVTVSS

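The library (AAYL51) carries one to three amino acid substitutions per variant, with no insertions or deletions. AlphaSeq pools MATa yeast showing the antibodies with MATalpha yeast showing the peptide. Pairs that bind mate more often; barcode pairs of the diploids are counted by sequencing. Read counts were normalised to the haploid input and turned into Kd by a linear fit to BCL2-family pairs of known affinity, for each replicate. Each pool was mated in three replicate cultures.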

Sequences are complete VH domains. Affinities are written as log10 Kd with Kd in nM; a lower number is a better binder. Replicates are averaged; those with no signal do not enter the mean. A pair that was not seen in any replicate is written "no signal"; this usually means weak binding, but a binder can also be missed. For reference, the parent read 1.86 as the reference entry and 0.88 as a member of this library. Three control strains display no target. For library AAYL51, 21% of the pairings with them gave a signal, with a median of 4.54 and one signal in twenty below 3.26, so weak values seen in few replicates may be background.

VH,mean log10 Kd (nM),detected
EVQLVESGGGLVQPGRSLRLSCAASGFTFDDYAMHWVRQAPGKGLEWVSGISWNSGSVGYADSVSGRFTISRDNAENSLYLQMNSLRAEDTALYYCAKVGRGNGYFDYWGQGTLVTVSS,no signal,0 of 3
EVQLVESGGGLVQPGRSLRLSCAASGFTFDDYAMQWVRQAPGKGLEWVSGISWNSKSIGYADSVKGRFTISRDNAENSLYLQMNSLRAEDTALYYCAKVGSGGGYFDYWGQGTLVTVSS,2.35,1 of 3
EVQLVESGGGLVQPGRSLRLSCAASTFTFDDYAMRWVRQAPGKGLEWVSGISWNSGSIGYADSVKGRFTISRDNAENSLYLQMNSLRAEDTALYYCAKVGAGGGYFDYWGQGTLVTVSS,5.64,1 of 3
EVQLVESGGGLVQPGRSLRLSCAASGFTFDDYAMHWVRQAPGKGLEWVSGWSWNSGSMGYADSIKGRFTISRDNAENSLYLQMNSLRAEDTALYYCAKVGRGGGYFDYWGQGTLVTVSS,5.35,1 of 3
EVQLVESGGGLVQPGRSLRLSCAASGFTFDDYASHWVRQAPGKGLEWVSGISWNSGSIGYADSVKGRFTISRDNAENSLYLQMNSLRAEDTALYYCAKVGRGGGYFLYWGQGTLVTVSS,no signal,0 of 3
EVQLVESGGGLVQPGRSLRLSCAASGETFDDYAMHWVRQAPGKGLEWVSGISWNSGSIGTADSVKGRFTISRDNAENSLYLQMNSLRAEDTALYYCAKVGGGGGYFDYWGQGTLVTVSS,5.43,1 of 3
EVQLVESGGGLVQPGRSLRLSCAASGFTFDDYAMHWVRQAPGKGLEWVSGISCNSCSIGYADSVKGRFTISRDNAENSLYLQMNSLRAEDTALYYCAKVGRGGHYFDYWGQGTLVTVSS,no signal,0 of 3
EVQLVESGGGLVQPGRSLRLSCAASGFNFDDYMMHWVRQAPGKGLEWVSGISWNSGSIGYADSVKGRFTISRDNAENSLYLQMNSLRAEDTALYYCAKVGRGGPYFDYWGQGTLVTVSS,4.65,2 of 3
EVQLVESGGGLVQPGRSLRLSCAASGFTFDDYAMHWVRQAPGKGLEWVSGISWNTGIIGYRDSVKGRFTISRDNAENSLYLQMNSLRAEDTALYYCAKVGRGGGYFDYWGQGTLVTVSS,no signal,0 of 3
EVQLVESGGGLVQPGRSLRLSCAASGFTFDDYAAHWVRQAPGKGLEWVSGISWNLGSIGYADSVKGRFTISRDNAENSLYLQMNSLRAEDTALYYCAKVGRGGGYFMYWGQGTLVTVSS,4.66,1 of 3
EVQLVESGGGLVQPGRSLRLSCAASGFTCDDYAMHWVRQAPGKGLEWVSGISWNGGSIGYADYVKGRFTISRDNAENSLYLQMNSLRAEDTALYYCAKVGRGGGYFDYWGQGTLVTVSS,6.13,1 of 3
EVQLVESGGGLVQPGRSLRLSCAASGFTFDNYAMHWVRQAPGKGLEWVSGISWNSGSIGYADMVCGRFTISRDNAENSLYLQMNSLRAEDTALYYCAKVGRGGGYFDYWGQGTLVTVSS,6.29,1 of 3
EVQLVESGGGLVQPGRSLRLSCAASEFTFDDYAMHWVRQAPGKGLEWVSGISYNVGSIGYADSVKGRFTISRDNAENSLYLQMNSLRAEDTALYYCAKVGRGGGYFDYWGQGTLVTVSS,3.42,1 of 3
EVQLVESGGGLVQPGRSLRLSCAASGFTFDDYAMYWVRQAPGKGLEWVSGISWNSRSIGYADSVKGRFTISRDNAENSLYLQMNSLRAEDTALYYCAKVGRGGGYFDYWGQGTLVTVSS,no signal,0 of 3
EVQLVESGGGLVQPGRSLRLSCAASGFTFDDYAMHWVRQAPGKGLEWVSGISWNSGSVGYADSVGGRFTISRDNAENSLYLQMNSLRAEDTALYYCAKVGRGGGYFDYWGQGTLVTVSS,no signal,0 of 3
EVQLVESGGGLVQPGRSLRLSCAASGFTFDDFAMHWVRQAPGKGLEWVSGISWNSGSIGYADSVHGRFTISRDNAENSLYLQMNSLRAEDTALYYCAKVGRGGGYFDKWGQGTLVTVSS,0.95,3 of 3
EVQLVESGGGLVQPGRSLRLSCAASEFTFDDYAPHWVRQAPGKGLEWVSGLSWNSGSIGYADSVKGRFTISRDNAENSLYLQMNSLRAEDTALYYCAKVGRGGGYFDYWGQGTLVTVSS,no signal,0 of 3
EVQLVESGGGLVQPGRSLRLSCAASGFSFDDYAMHWVRQAPGKGLEWVSGIFWNSGSIGYADSVYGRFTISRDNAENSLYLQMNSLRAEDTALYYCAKVGRGGGYFDYWGQGTLVTVSS,4.94,2 of 3
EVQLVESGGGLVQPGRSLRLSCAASGFTFDDYAMHWVRQAPGKGLEWVSGINWNSGSIGYADSVFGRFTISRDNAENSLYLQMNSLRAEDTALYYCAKVGRGGGYYDYWGQGTLVTVSS,no signal,0 of 3
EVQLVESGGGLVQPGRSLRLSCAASGFTFDDYAMYWVRQAPGKGLEWVSGISWNSGSIGYQDSVKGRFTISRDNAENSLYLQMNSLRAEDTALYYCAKVGRGGGYFDYWGQGTLVTVSS,no signal,0 of 3
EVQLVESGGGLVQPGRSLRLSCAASGFTFDDYAMHWVRQAPGKGLEWVSGISWNSGSIGYAMSVKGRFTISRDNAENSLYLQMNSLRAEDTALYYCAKVGRWGGYFPYWGQGTLVTVSS,5.10,2 of 3
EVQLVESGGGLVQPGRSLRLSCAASGFTFDDYAMCWVRQAPGKGLEWVSGISWNPGSIFYADSVKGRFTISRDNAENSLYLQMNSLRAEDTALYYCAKVGRGGGYFDYWGQGTLVTVSS,no signal,0 of 3
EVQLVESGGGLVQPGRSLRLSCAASFFTFDDYAMHWVRQAPGKGLEWVSGISWNSCSIMYADSVKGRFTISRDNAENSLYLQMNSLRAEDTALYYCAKVGRGGGYFDYWGQGTLVTVSS,no signal,0 of 3
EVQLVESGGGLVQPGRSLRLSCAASGFTFDHYAMHWVRQAPGKGLEWVSGISWNSGSIGYALSQKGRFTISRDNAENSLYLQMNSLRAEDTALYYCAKVGRGGGYFDYWGQGTLVTVSS,3.83,1 of 3
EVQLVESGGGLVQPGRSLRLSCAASGFTFDDYAMHWVRQAPGKGLEWVSGISSNSLSIGYADSVKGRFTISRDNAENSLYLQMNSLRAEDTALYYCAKVGRGGGYKDYWGQGTLVTVSS,4.96,2 of 3

The last 3 entries again:

| VH | mean log10 Kd (nM) | detected |
|---|---|---|
| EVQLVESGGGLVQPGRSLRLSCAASFFTFDDYAMHWVRQAPGKGLEWVSGISWNSCSIMYADSVKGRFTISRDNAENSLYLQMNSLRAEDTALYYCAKVGRGGGYFDYWGQGTLVTVSS | no signal | 0 of 3 |
| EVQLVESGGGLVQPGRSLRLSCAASGFTFDHYAMHWVRQAPGKGLEWVSGISWNSGSIGYALSQKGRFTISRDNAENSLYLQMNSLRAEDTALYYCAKVGRGGGYFDYWGQGTLVTVSS | 3.83 | 1 of 3 |
| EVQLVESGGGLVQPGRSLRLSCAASGFTFDDYAMHWVRQAPGKGLEWVSGISSNSLSIGYADSVKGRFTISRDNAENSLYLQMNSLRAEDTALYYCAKVGRGGGYKDYWGQGTLVTVSS | 4.96 | 2 of 3 |